Reference: US8551717B2, “Method for determining sumoylation” (Medizinische Hochschule Hannover, priority 2008, dated 2013)

System: STAT1
Experiment: Interplay of STAT1 Y701 phosphorylation and K703 SUMOylation by USDDS, western blot
Assay type: cell-based, human
Details: HEK293 transfectants; interferon-β stimulation ½ h or 1 h; α-pY701 STAT1 blot
Text: To identify new SUMOylation substrates and to study the function of SUMOylation the Ubc9/substrate dimerisation-dependent SUMOylation system (USDDS) was developed which consists of fusions of the SUMOylation substrate and of the SUMO-conjugating enzyme Ubc9 to the chemically activatable heterodimerisation domains FKBP and FRB, respectively, as shown in FIG. 2. When the substrate protein fused to FKBP is coexpressed with Ubc9-FRB, treatment of HEK293 cells with the rapamycin-related dimerizer AP21967 induces SUMOylation of the substrate protein fused to FKBP at its specific SUMOylation site. […] Dependent on an EcoRl site in the coding sequence, seven C-terminal amino acids of the human STAT1a in the STAT1-FKBP/FRB fusion proteins are missing. […]
The USDDS was used to study the interplay of Y701 phosphorylation and the K703 SUMOylation in vivo (FIG. 5). […] The proteins of the transfectants were immunoblotted with a phospho (p)Y701 STAT1 antibody (α-pY701 STAT1), stripped and re-probed with a STAT1 antibody (α-STAT1) to detect also non-phosphorylated and SUMOylated STAT1.The proteins of the transfectants then were analyzed by a pY701-STAT1 specific antibody, that recognizes the tyrosine 701 phosphorylation also in SUMOylated STAT1 (FIG. 5). […] However, pY701 could never be detected in the gel region where SUMOylated STAT1-FRB migrates. […]

B1: interferon-β: interferon-β used to induce STAT1 phosphorylation (protein, UniProt P01574 22-187, looked up)
Interferon beta: MSYNLLGFLQRSSNFQCQKLLWQLNGRLEYCLKDRMNFDIPEEIKQLQQFQKEDAALTIYEMLQNIFAIFRQDSSSTGWNETIVENLLANVYHQINHLKTVLEEKLEKEDFTRGKLMSSLHLKRYYGRILHYLKAKEYSHCAWTIVRVEILRNFYFINRLTGYLRN
Y701 phosphorylation of endogenous STAT1: induced Y701 phosphorylation | Y701 phosphorylation of the STAT1-FRB fusion protein: induced Y701 phosphorylation
